Only a part is listed here, and it is no random draw. Active and inactive are the calls of the source. No stated cut-off is given here; in the data, active means activation above about 30%; inactive means the rest.

Protein sequences, listed by entry. Tags and fused reporters are not part of them. Lines headed by an entry give the natural chain unless they say otherwise; changes in a name come on top.
UniProt P34981: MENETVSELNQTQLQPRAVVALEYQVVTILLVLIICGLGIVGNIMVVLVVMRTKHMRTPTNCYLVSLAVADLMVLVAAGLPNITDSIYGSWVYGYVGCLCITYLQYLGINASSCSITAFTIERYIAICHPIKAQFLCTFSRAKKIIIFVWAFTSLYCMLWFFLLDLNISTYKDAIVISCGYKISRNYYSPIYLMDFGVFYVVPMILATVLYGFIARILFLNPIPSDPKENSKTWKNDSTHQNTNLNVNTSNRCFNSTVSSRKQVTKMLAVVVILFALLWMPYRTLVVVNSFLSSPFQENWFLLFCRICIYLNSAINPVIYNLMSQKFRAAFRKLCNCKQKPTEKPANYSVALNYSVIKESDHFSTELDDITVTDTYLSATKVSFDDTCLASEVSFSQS

The test addresses Thyrotropin-releasing hormone receptor (Homo sapiens) (UniProt P34981). The test is described as follows: qHTS for Small Molecule Agonists and Allosteric Enhancers of Human TRH Receptor: Primary Screen for Agonists. Further: 0% is about no effect. The settings on record: TRHR cells, calcium flux fluo-8, FDSS agonist mode; at 2 µM; hits give high values. An excerpt: NIH Chemical Genomics Center [NCGC] NIH Molecular Libraries Probe Centers Network [MLPCN] MLPCN Grant: MH089816-01 Assay Submitter (PI): Marvin Gershengorn This project aims to identify small drug-like molecules that activate (agonists) the thyrotropin releasing hormone (TRH) receptor (TRHR) or enhance its TRH-stimulated activity (allosteric enhancers). TRHR, a drug-accessible cell surface receptor expressed in specific brain regions, and its ligand TRH have been implicated in several central nervous system disorders, including depression and anxiety. Small molecule TRHR agonists or allosteric enhancers that are metabolically stable and able to cross the blood-brain barrier might serve as probes to elucidate the roles of brain TRH receptors in animal models, and might be valuable as lead compounds for the development of drugs to treat patients with central nervous system disorders. Upon TRHR-Gq activation in TRHR cells, intracellular calcium is released from stores in the endoplasmic reticulum. […] This primary screen measures compound-induced activation of calcium release.
For the HTS assay freshly prepared cells are plated at a density of 2000/well in 3 ul of complete DMEM medium containing 10% serum in 1536-well plates and cultured over night at 37 C in a humidified incubator with 5% CO2. The next day, 2 ul of a no wash calcium dye (ABD Bioquest) was added to the cells and plates were incubated at room temperature for 1 hour. For the assay, assay plates were loaded into the FDSS kinetic plate reader. A 10 cycle (1 second/cycle) baseline measurement is taken and then the FDSS online 1536 pintool delivers 23 nl of compound library (as well as TRH controls) to the plate. The plate is measured for kinetically at 1 cycle/sec for 180 seconds and is considered to be the agonist portion of the assay (eg, compounds which activate a positive calcium response during this portion are flagged as potential agonists). Following the 180 second read, 1 ul of either an EC20 (positive modulation assay) is delivered by an onboard pipette head. Measurements are taken kinetically for an additional 180 seconds. TRHR FDSS Screening Protocol 1. Reagent, 3 uL 2000 cells/well 1536 TC treated Black plate in media containing 10% FCS 2. Time, 18 hours, 33.5C 5% CO2 (cells grown at 37C) 3. Reagent, 2 uL ABD fluo-8 Ca dye 4. Time, 30 min-1.5hrs hours, Room temp (6 plates/batch) 5. Detector, EX 480/EM 530C, FDSS 10 cycles baseline (1sec/cycle) 6. Compound, 23 nL of stock solution from library 7. Detector, EX 480/EM 530C, FDSS […] (1sec/cycle) Agonist mode 8. Compound, 1 ul EC20 of TRH made up in HEPES HBSS, 10 nM final 9. Detector, EX 480/EM 530C, FDSS 100 cycles (1sec/cycle) Potentiator mode
A general note: In qHTS, concentration-response curves come from the screen itself.
Consider `O=[N+]([O-])c1cc([N+](=O)[O-])c(-c2ccn[nH]2)s1`, for which the activation was inactive: 0.0002%. Turning to `CCN(CC)C(=S)SC(NC=O)C(Cl)(Cl)Cl` (centres undefined), the activation is inactive: 0.184%. Next, `CC(C)NC(=O)NP(=O)(Oc1ccccc1)Oc1ccccc1`: inactive: -0.232%. With `ClCCSc1nnc(-c2cccnc2)o1`, the activation is inactive: 0.882%. Consider `CC(C)c1ccc(OP(=O)(Nc2ccccn2)Oc2ccccc2F)cc1` (centres undefined), for which the activation is inactive: 0.027%.

In the case of `Cc1ccc(OP(=O)(Nc2ccc([N+](=O)[O-])cn2)Oc2ccc(C)cc2)cc1`, the activation was inactive: 0.985%. Regarding `Cc1ccc2nc3c(c(C)c2c1)CC(C(Cl)Cl)S3` (centres undefined), the activation was inactive: -0.596%.

Take `COc1cc(C(=O)NCC2(N3CCOCC3)CCCCC2)ccc1OCC(C)C`: the activation was inactive: -0.514%. In the case of `O=[As](O)(c1ccc(O)cc1)c1ccccc1O`, the activation was inactive: 0.461%. Next, `C[As](=O)(O)c1cccc(C(=O)O)c1`: inactive: -0.464%; `COc1ccc(N/C(=N/P(=O)(N2CCOCC2)N2CCOCC2)N2CCOCC2)cc1`: inactive: 0.677%. In the case of `COc1cc(I)ccc1[As](=O)(O)O`, the activation is inactive: 0.607%. For the molecule `COc1ccc2nc(NP(=O)(c3ccccc3)c3ccccc3)sc2c1`, the activation is inactive: -1.62%. Regarding `Cc1c2c(nc3ccccc13)SC(C(Cl)Cl)C2` (centres undefined), the activation was inactive: 1.89%. `Cc1cc(=O)[nH]c(N[N+](=O)[O-])n1`: the activation is inactive: 0.191%. In the case of `O=C(OC1CN2CCC1CC2)C12CC3CC(CC(C3)C1)C2` (centres undefined), the activation is inactive: 1.72%. Under `CCC(C)N(CC(C)C)C(=S)SC(NC(C)=O)C(Cl)(Cl)Cl` (centres undefined) stands inactive: -0.448%. For `CCOP(=O)(Nc1cccc2cccnc12)OCC`, the activation is inactive: 0.621%. Turning to `O=C(OC1CN2CCC1CC2)c1cccc([N+](=O)[O-])c1` (centres undefined), the activation was inactive: 0.118%. For `CCOC(=O)c1ccc(NC(=O)C(C)(CCl)SC)cc1` (centres undefined), the activation was inactive: 0.58%. On to `O=C(Nc1ccncc1[N+](=O)[O-])c1ccc([N+](=O)[O-])cc1[N+](=O)[O-]`, for which the activation is inactive: 0.695%. As for `O=C(COc1ccccc1)OC1CN2CCC1CC2` (centres undefined), the activation is inactive: -0.0573%. In the case of `COP1(=S)c2c(C)nn(CCC#N)c2N=C(c2ccc(F)cc2)N1C` (centres undefined), the activation was inactive: 0.2%. As for `O=P(Nc1ccccn1)(c1cccc2ccccc12)c1cccc2ccccc12`, the activation was inactive: 2.27%. `Cc1cc(SC(NC=O)C(Cl)(Cl)Cl)ncn1` (centres undefined): the activation was inactive: 0.622%. Under `O=[N+]([O-])c1ccc(Nc2ccc(Oc3ccc([N+](=O)[O-])cc3[N+](=O)[O-])cc2)c([N+](=O)[O-])c1` stands inactive: 0.412%. As to `CCOC(=O)Nc1cccc([As](=O)(O)O)c1`, the activation was inactive: -0.903%.

For `Cc1cc(SC(NC(=O)c2ccccc2)C(Cl)(Cl)Cl)nc(C(C)C)n1` (centres undefined), the activation was inactive: 0.521%.

On to `CCCCOc1ccc(C(=O)NCC2(N3CCCCC3)CCCCC2)cc1OC`, for which the activation is active: 30.6%. Turning to `CCOC(=O)Nc1ccc([As](=O)(O)O)c(O)c1`, the activation was inactive: -0.972%. On to `Nc1cccc([As](=O)(O)c2ccccc2)c1`, for which the activation is inactive: 0.405%. As to `O=P1(Nc2ccc(Br)cn2)COc2ccccc2OC1`, the activation was inactive: 0.143%. Take `NS(=O)(=O)c1cccc(NC(=O)COC(=O)C(O)(c2ccccc2)c2ccccc2)c1`: the activation is inactive: 0.241%. Under `Cc1ccc(OCC(=O)OC2CN3CCC2CC3)cc1` (centres undefined) stands inactive: 0.391%; under `O=[As](O)(c1cccs1)c1cccs1`, inactive: -1.99%; under `O=P1(Nc2ncccn2)COc2ccccc2OC1`, inactive: -1.81%. Turning to `CN(C)C1(CNC(=O)c2ccc(S(C)(=O)=O)cc2)CCCCC1`, the activation is inactive: 1.91%. With `O=C(/C=C/c1ccccc1)OC1CN2CCC1CC2` (centres undefined), the activation was inactive: 2.18%. Under `CC1CCC(C(C)C)C(OP(=O)(Nc2ccccn2)c2ccccc2)C1` (centres undefined) stands inactive: 1.03%; under `Cc1ccc(C(=O)OC2CN3CCC2CC3)cc1` (centres undefined), inactive: 1.45%. Consider `Cc1nn(-c2ccccc2)c2c1P(=O)(N1CCOCC1)N(C)C(c1ccccc1)=N2` (centres undefined), for which the activation is inactive: -0.358%. As for `CC(C)/C=N\N=C(\N)N[N+](=O)[O-]`, the activation was inactive: 0.512%. With `CN(C(=O)Cc1ccc(Cl)c(Cl)c1)[C@@H]1CCCC[C@H]1N1CCCC1`, the activation was inactive: 0.434%. Regarding `O=[As](O)(c1ccccc1Br)c1ccccc1Br`, the activation was inactive: 0.591%. Next, `COc1ccccc1CNC(=O)COC(=O)C(O)(c1ccccc1)c1ccccc1`: inactive: -0.693%. `CC(C)(C)C(=O)NC(Sc1ncccn1)C(Cl)(Cl)Cl` (centres undefined): the activation is inactive: 0.232%.

In the case of `Clc1n[nH]nc1-c1nn[nH][15n]1`, the activation is inactive: 0.2%. As for `CCOP(=O)(NC(=NC(C)c1ccccc1)NC(C)c1ccccc1)OCC` (centres undefined), the activation was inactive: 0.898%. On to `O=P1(Nc2ccccn2)COc2ccccc2OC1`, for which the activation was inactive: 0.81%. Under `CCC1=CC2Cc3nc4ccc(Cl)cc4c(N)c3C(C1)C2` (centres undefined) stands inactive: 0.784%; under `CCOP(=O)(Nc1ccc(C)cn1)OCC`, inactive: 0.917%. On to `CCOP(=O)(Nc1cccc2ccccc12)OCC`, for which the activation is inactive: 0.16%. Under `COc1cc(C2NCCC3(OCCO3)C2(C)C)cc(OC)c1OC` (centres undefined) stands inactive: -0.129%. `Cc1ccc(NCCc2c([N+](=O)[O-])cc([N+](=O)[O-])cc2[N+](=O)[O-])cc1`: the activation is inactive: 0.246%.

Take `Nc1cccc2c([As](=O)(O)O)cccc12`: the activation is inactive: 21.6%.

Regarding `CCCOP(=S)(Nc1nc(N)cc(=O)[nH]1)OCCC`, the activation was inactive: -1.7%. `O=[As](O)(c1cccc(O)c1)c1cccc(O)c1`: the activation is inactive: 0.22%. In the case of `Cc1cccc(OCC(=O)OC2CN3CCC2CC3)c1` (centres undefined), the activation was inactive: -0.363%.

Turning to `O=C(OC1CN2CCC1CC2)c1ccc(Cl)cc1` (centres undefined), the activation was inactive: 0.946%. Under `CS(=O)(=O)c1ccc(Cl)c(NC(=O)COC(=O)C(O)(c2ccccc2)c2ccccc2)c1` stands inactive: -0.896%. `COc1cc(C(=O)NCC2(N3CCOCC3)CCCCC2)cc(Cl)c1OC(C)C`: the activation is inactive: -0.196%. `O=[As](O)(O)c1cccnc1`: the activation is inactive: -0.754%. Turning to `CCOP1(=S)c2c(C)nn(CCC#N)c2N=C(c2ccc(F)cc2)N1C` (centres undefined), the activation was inactive: 0.21%. `CN(C(=O)Cc1ccccc1)[C@@H]1CC[C@]2(CCCO2)C[C@H]1N1CCCC1`: the activation is inactive: -0.328%.

These data come from PubChem BioAssay AID493084 (National Center for Advancing Translational Sciences (NCATS), 2011).
